From patent publication US11591313B2, “Inhibitors of ectonucleotide pyrophosphatase/phosphodiesterase 1 (ENPP1) and methods of use thereof” (Stingray Therapeutics, Inc., priority 2020, dated 2023)

By UniProt entry, the sequences of proteins in these tests, tags left out. Where a name states a change or a piece, a line headed by the entry shows the natural chain unless it says otherwise.
UniProt P22413: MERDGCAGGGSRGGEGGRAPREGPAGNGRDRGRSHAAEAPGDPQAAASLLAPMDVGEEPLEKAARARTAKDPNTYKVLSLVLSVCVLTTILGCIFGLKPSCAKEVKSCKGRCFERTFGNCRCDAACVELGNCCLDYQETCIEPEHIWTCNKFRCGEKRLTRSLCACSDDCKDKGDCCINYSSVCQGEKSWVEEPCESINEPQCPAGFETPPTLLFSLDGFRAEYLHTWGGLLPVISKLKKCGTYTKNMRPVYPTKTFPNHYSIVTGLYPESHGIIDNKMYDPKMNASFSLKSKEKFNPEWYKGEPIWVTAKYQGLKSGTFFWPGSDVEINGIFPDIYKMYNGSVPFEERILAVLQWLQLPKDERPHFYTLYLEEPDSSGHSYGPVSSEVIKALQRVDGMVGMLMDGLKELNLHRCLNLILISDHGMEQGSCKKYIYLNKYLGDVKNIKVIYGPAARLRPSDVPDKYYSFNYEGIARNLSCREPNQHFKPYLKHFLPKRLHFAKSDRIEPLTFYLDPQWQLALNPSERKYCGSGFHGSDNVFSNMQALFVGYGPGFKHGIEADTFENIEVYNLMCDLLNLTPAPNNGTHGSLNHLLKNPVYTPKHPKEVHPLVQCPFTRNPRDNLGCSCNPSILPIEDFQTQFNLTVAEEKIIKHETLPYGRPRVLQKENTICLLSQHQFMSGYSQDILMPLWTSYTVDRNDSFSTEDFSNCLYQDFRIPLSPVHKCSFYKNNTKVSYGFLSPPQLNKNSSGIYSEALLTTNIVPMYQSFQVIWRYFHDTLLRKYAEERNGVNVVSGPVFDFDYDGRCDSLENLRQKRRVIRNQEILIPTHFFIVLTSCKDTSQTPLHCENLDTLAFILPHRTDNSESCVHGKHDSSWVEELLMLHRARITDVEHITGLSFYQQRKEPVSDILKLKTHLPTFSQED

These compounds were tested against Recombinant Human ENPP-1 Protein (Homo sapiens (Human), UniProt P22413) (assay: ENPP1 Assay (TMP)). Settings: substrate thymidine 5′-monophosphate 150 μM, pH 9.0, 37° C. 45 minutes, absorbance at 405 nm.
Type: biochemical
COc1cc2ncnc(N3CCCC(CCNS(N)(=O)=O)CC3)c2cc1OC (stereo not drawn) [Compound 060, N-(2-(1-(6,7-dimethoxyquinazolin-4-yl)azepan-4-yl)ethyl)sulfamide] gave an IC50 of 4.34 nM.

Same assay, conditions: substrate thymidine 5′-monophosphate 150 μM, pH 9.0, 37° C. 45 minutes, absorbance at 405 nm; read-out: IC50
For COc1cc2ncnc(-c3ccc(CNS(N)(=O)=O)nc3)c2cc1OC [Compound 047, N-((5-(6,7-dimethoxyquinazolin-4-yl)pyridin-2-yl)methyl) sulfamide], the IC50 was 67.1 nM. Compound COc1cc2ncc(C#N)c(-c3ccc(CNS(N)(=O)=O)nc3)c2cc1OC [Compound 046] has an IC50 of 9.8 nM. In the case of COc1cc2ncnc(CCCCCNS(N)(=O)=O)c2cc1OC [Compound 050], the IC50 is reported as 20.1 nM. Compound COc1cc2ncnc(OCCCCNS(N)(=O)=O)c2cc1OC [Compound 053] has an IC50 of 3.6 nM. In the case of COc1cc2ncnc(OCCCCCNS(N)(=O)=O)c2cc1OC [Compound 054], the IC50 is reported as 23.8 nM. COc1cc2ncnc(NCCCCCNS(N)(=O)=O)c2cc1OC [Compound 057] was tested, and the IC50 was 46.6 nM. COc1cc2ncnc(N3CCCC(CCNS(N)(=O)=O)CC3)c2cc1OC (stereo not drawn) [Compound 049] was tested, and the IC50 was 1.79 nM. COc1cc2ncnc(SCCCCNS(N)(=O)=O)c2cc1OC [Compound 058, N-(4-((6,7-dimethoxyquinazolin-4-yl)thio)butyl) sulfamide hydrochloride] gave an IC50 of 3.06 nM. COc1cc2ncnc(NCCCCNS(N)(=O)=O)c2cc1OC [Compound 056] was tested, and the IC50 was 6.87 nM. COc1cc2ncnc(-c3ccc(NCCNS(N)(=O)=O)nc3)c2cc1OC.Cl [Compound 048] showed an IC50 of 60.4 nM. With COc1cc2ncnc(N(C)CCCCCNS(N)(=O)=O)c2cc1OC [Compound 061, N-(5-((6,7-dimethoxyquinazolin-4-yl) (methyl)amino)pentyl) sulfamide] the IC50 was 28.9 nM.

Counter-ions that a name gives are not always drawn.
